Measured values: publication PMC8647500 (Molecular Brain, 2021)
Counter-ions that a name gives are not always drawn.

System: mutants of DA1.0 (#76, #310, and #430)
Conditions: HeLa cells, SCH 10 μM

In the case of `CN1CCc2cc(Cl)c(O)cc2[C@@H](c2ccccc2)C1` [SCH, R( +)-SCH 23390 hydrochloride], the “effect of antagonist on the response of mutants #76, #310 and #430 to DA” value is reported as “blocked”.
